According to PubChem BioAssay (Tox21):
Several values for one entry are separate records, joined by “and”; a condition that tells them apart may be missing. Where a call stands in place of a potency, no number is given. Equal values may be shown once. For some assays here: Shown are results outside the selection of hits, which stands elsewhere. Records with an inconclusive call do not appear. This is a selection; strong and weak results do not stand in their true shares. Activity calls are given as the source filed them. Unless noted, calls follow the shape of the dose curve; as a rule, active = well fitted curve in the direction sought with a large enough effect in the repeat runs; inconclusive = weak or mixed curves; inactive = no such curve, though single readings can be large; an effect the other way counts as inactive or inconclusive.

By UniProt entry, the sequences of proteins in these tests, tags left out. Where a name states a change or a piece, a line headed by the entry shows the natural chain unless it says otherwise.
UniProt P10275: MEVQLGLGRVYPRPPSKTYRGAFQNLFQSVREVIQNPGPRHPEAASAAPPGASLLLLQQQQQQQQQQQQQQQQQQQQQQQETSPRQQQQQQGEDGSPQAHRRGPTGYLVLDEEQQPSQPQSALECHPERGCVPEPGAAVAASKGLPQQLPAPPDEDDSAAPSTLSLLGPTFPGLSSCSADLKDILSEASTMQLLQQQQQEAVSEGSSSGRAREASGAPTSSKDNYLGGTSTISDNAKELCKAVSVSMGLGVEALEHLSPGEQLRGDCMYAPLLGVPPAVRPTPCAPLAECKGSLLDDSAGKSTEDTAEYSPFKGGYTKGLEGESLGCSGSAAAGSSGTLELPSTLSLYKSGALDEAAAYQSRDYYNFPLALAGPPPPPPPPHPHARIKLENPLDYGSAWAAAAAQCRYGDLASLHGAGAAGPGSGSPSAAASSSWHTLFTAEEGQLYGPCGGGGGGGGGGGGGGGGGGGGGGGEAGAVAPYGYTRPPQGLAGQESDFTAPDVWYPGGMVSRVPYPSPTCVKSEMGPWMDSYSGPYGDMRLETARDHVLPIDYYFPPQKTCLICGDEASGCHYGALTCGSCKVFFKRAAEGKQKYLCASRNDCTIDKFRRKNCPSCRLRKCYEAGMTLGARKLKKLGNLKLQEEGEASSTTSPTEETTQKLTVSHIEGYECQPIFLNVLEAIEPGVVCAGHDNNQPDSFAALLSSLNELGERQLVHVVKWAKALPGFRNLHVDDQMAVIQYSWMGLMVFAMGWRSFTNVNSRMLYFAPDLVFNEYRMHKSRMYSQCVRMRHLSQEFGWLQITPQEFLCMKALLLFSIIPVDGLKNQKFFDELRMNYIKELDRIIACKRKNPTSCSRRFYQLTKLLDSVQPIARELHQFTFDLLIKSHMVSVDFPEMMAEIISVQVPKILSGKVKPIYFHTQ
UniProt O75469: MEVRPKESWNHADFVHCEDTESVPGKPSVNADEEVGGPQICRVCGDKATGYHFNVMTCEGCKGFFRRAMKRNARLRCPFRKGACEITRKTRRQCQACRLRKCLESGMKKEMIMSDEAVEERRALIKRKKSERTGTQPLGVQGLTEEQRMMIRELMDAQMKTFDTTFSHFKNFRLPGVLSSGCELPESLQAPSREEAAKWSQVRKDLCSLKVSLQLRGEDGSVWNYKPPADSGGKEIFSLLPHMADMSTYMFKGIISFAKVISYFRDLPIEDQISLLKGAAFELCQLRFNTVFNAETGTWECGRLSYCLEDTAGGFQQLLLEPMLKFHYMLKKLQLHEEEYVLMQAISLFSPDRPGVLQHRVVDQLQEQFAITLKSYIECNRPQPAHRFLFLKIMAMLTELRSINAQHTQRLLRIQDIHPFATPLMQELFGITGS
UniProt Q92731, whole entry, looked up: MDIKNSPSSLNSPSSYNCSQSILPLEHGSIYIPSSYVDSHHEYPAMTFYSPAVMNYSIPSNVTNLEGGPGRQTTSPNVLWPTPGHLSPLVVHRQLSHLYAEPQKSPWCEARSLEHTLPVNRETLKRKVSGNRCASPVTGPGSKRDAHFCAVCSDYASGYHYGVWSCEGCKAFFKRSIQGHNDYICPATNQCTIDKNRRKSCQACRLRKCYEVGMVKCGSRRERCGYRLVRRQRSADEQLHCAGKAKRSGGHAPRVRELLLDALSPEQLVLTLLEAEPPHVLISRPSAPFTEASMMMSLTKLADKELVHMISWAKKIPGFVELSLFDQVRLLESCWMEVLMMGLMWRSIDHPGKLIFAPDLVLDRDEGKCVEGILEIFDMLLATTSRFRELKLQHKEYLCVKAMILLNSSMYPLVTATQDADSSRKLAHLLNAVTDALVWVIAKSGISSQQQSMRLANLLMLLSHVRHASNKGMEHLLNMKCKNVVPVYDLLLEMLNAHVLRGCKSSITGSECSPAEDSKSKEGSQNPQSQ
UniProt P03372, whole entry, looked up: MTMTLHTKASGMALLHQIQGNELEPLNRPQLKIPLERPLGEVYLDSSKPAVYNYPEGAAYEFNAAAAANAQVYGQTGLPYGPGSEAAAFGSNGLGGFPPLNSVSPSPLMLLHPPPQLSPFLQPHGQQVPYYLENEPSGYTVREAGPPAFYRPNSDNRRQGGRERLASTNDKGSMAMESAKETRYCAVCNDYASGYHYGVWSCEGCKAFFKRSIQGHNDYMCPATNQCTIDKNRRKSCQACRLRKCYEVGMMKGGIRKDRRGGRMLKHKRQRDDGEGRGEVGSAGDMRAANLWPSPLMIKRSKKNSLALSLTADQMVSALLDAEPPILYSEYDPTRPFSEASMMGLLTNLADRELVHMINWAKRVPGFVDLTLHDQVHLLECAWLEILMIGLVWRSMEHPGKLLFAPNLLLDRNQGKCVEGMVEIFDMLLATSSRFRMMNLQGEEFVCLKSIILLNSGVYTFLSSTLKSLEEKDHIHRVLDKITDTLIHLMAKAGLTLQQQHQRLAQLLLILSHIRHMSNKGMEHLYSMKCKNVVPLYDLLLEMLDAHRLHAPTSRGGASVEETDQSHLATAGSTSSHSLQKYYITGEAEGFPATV

Assays:
[1] = molecular target: Androgen receptor (Homo sapiens) (UniProt P10275); experiment: qHTS assay to identify small molecule agonists of the androgen receptor (AR) signaling pathway using the MDA cell line (AID 743040; also: nearly all actives have a fitted effect of over 20% in size); settings: MDA-kb2 AR-luc cells, MMTV luciferase, 16 h, stronger effect = higher value
[2] = molecular target: Androgen receptor (Homo sapiens) (UniProt P10275); experiment: qHTS assay to identify small molecule antagonists of the androgen receptor (AR) signaling pathway using the MDA cell line (AID 743042; also: nearly all actives have a fitted effect of over 55% in size; also: potency is read from the fitted curve at half-maximal effect)
[3] = qHTS assay to identify small molecule antagonists of the retinoic acid receptor (RAR) signaling pathway (AID 1159552; also: nearly all actives have a fitted effect of over 50% in size; also: potency is read from the fitted curve at half-maximal effect)
Method in brief: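 Retinol signaling pathway inhibitors screened in C3RL4 RARE-luciferase reporter cells seeded overnight at 37 C, then compounds added with 1 uM (final) retinol as pathway substrate. After 6 hr at 37 C, luciferase luminescence read after 30 min at room temperature.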

[4] = molecular target: Androgen receptor (Homo sapiens) (UniProt P10275); experiment: qHTS assay to identify small molecule antagonists of the androgen receptor (AR) signaling pathway using the MDA cell line in the presence of 0.5 nM R1881 (AID 1259243); also: nearly all actives have a fitted effect of over 50% in size; also: potency is read from the fitted curve at half-maximal effect
[5] = molecular target: Androgen receptor (Homo sapiens) (UniProt P10275); experiment: qHTS assay to identify small molecule agonists of the androgen receptor (AR) signaling pathway in the presence of an antagonist (AID 1259381; calls by dose curve; also: nearly all actives have a fitted effect of over 15% in size)
[6] = molecular target: Androgen receptor (Homo sapiens) (UniProt P10275); experiment: qHTS assay to identify small molecule antagonists of the androgen receptor (AR) signaling pathway (AID 743035; active = well fitted inhibition curve with a large enough effect in the signal ratio in the repeat runs, not every such curve was filed as active; the % refers to the signal ratio; also: potency is read from the fitted curve at half-maximal effect)
[7] = molecular target: Nuclear receptor subfamily 1 group I member 2 (Homo sapiens) (UniProt O75469); experiment: Human pregnane X receptor (PXR) small molecule agonists, qHTS assay (AID 1346982); also: nearly all actives have a fitted effect of over 35% in size
Method in brief: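 Stable HepG2 line reporting PXR-mediated CYP3A4 expression via luciferase. Treatment: 24 hr with compounds in DMSO at 37 C. Detection: ONE-Glo luminescence.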

[8] = molecular target: Estrogen receptor beta (Homo sapiens) (UniProt Q92731); experiment: qHTS assay to identify small molecule agonists of the estrogen receptor beta (ER-beta) signaling pathway (AID 1259377; active = well fitted activation curve with a large enough effect in the signal ratio in the repeat runs, not every such curve was filed as active; the % refers to the signal ratio); settings: ER-beta-UAS-bla HEK293T, beta-lactamase FRET ratio, 16 h; at 92.4 µM (top of the series) unless noted
[9] = molecular target: Estrogen receptor (Homo sapiens) (UniProt P03372); experiment: qHTS assay to identify small molecule antagonists of the estrogen receptor alpha (ER-alpha) signaling pathway (AID 743069; active = well fitted curve in the direction sought with a large enough effect in the signal ratio in the repeat runs, not every such curve was filed as active; the % refers to the signal ratio)
[10] = molecular target: Estrogen receptor (Homo sapiens) (UniProt P03372); experiment: qHTS assay to identify small molecule agonists of the estrogen receptor alpha (ER-alpha) signaling pathway (AID 743075; calls by dose curve;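 also: HEK293 GripTite cells with ER-alpha and UAS-driven beta-lactamase reporter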)
[11] = molecular target: Estrogen receptor (Homo sapiens) (UniProt P03372); experiment: qHTS assay to identify small molecule agonists of the estrogen receptor alpha (ER-alpha) signaling pathway using the BG1 cell line (AID 743079); also: nearly all actives have a fitted effect of over 20% in size
[12] = molecular target: Estrogen receptor (Homo sapiens) (UniProt P03372); experiment: qHTS assay to identify small molecule antagonists of the estrogen receptor alpha (ER-alpha) signaling pathway using the BG1 cell line in the presence of 0.1 nM 17-beta-estradiol (AID 1259244); settings: VM7Luc4E2 (BG1) ERE-luciferase, antagonist mode, 0.1 nM E2, 22 h; at 42.5 µM (top of the series); also: nearly all actives have a fitted effect of over 50% in size
[13] = molecular target: Estrogen receptor (Homo sapiens) (UniProt P03372); experiment: qHTS assay to identify small molecule agonists of the estrogen receptor alpha (ER-alpha) signaling pathway in the presence of an antagonist (AID 1259383; calls by dose curve; also: top concentration of the series differs between compounds; nearly all actives have a fitted effect of over 15% in size)

Structure (SMILES): CCCCCCCCCCCCCC[n+]1ccccc1
- activity change ([1]; at 70.3 µM (top of the series)): inactive: -2.98%
- Potency [2]: active: 1.54 µM
- Potency [3]: active: 24.3 µM
- Potency [4]: active: 1.22 µM
- Potency [5]: inactive

Structure (SMILES): CC[N+](C)(CC)CCOC(=O)C1c2ccccc2Oc2ccccc21
- activity change ([1]; at 70.3 µM (top of the series)): inactive: -1.45%
- Potency [3]: inactive
- Potency [4]: inactive
- Potency [5]: inactive

Structure (SMILES): Cc1ncc(COP(=O)(O)O)c(C=O)c1O
- Potency [3]: inactive

Structure (SMILES): S=C1NC=NC2N=CNC12 (centres undefined)
- Potency [3]: inactive

Structure (SMILES): CCCCCCCC[N+](CCCCCCCC)(CCCCCCCC)CCCCCCCC
- activity change ([1]; at 70.3 µM (top of the series)): inactive: -10.6%
- Potency [2]: active: 1.53 µM
- Potency [3]: active: 19.3 µM
- Potency [4]: active: 1.53 µM
- Potency [5]: inactive

Structure (SMILES): Nc1c2c(nc3c1CCC3)CCCC2
- Potency [3]: inactive

Structure (SMILES): NC(=O)C(c1ccccc1)(c1ccccc1)[C@@H]1CCN(CCc2ccc3c(c2)CCO3)C1
- Potency [3]: inactive

Structure (SMILES): COCCc1ccc(OCC(O)CNC(C)C)cc1 (centres undefined)
- Potency [3]: inactive

Structure (SMILES): O=C(O)CCCC[P+](c1ccccc1)(c1ccccc1)c1ccccc1
- Potency [3]: inactive
- Potency [4]: inactive
- Potency [5]: inactive

Structure (SMILES): CCCCCCCCOc1ccccc1C(=O)Nc1ccc(C(=O)OCC[N+](C)(CC)CC)cc1
- Potency [6]: inactive
- activity change ([1]; at 70.3 µM (top of the series)): inactive: -10.1%
- Potency [3]: active: 29.8 µM
- Potency [4]: inactive
- Potency [5]: inactive

Structure (SMILES): FB(F)F
- Potency [3]: inactive

Structure (SMILES): CC(C(=O)O)c1cccc(Oc2ccccc2)c1 (centres undefined)
- Potency [3]: inactive
- Potency [7]: inactive

Structure (SMILES): O=S1(=O)N=C(O)c2ccccc21
- Potency [3]: inactive
- Potency [7]: inactive

Structure (SMILES): CCCCCCCCCCCCCCCC[N+](C)(C)CCN(Cc1ccc(OC)cc1)c1ncccn1
- Potency [6]: active: 10.2 µM
- activity change ([1]; at 32.5 µM (top of the series)): inactive: -6.07%
- Potency [2]: inactive
- Potency [4]: active: 29.8 µM
- Potency [5]: inactive

Structure (SMILES): O=S(=O)(O)c1ccccc1
- activation [8]: inactive: 8.55% and inactive: -1.96%
- Potency [7]: inactive

Structure (SMILES): CN1CCC[C@@H]1c1cccnc1
- Potency [9]: inactive
- Potency [10]: inactive
- Potency [11]: inactive
- activity change, negative = inhibition [12]: inactive: -3.69%
- Potency [13]: inactive
